Most compounds without a hit are left out; they make up all but 1.5% or so of the library.
RAD54 branch: blocks human RAD54 Holliday junction branch migration; Q92698; FAM/BHQ fluorescence; inhibition, % at 10.4 µM; hit rate 0.14% among 360,000;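 active means mean normalized replicate activity at least 40 and at least half of replicates scoring 40 or more; inconclusive means only one of the two criteria met; inactive means mean below 40 and under half of replicates reaching 40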;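 further: inhibitors cause a drop in the FAM fluorescence signal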
PglD inh: inhibitors of Campylobacter jejuni PglD acetyltransferase | purified PglD enzyme, DTNB colorimetric CoA detection | inhibition, % at 12.5 µM | hit rate 0.098% among 360,000; in the data active means inhibition above about 16%, passing the limit was not always enough; inconclusive means no clear call, values can overlap the other calls
Yeast UUG start: modulators of yeast start codon fidelity, primary screen, whole organism, S. cerevisiae, single point, plate reader | AID 602363, 2012 | actives 0.13% (n = 350,000) | activity score, % at 18.7 µM | S. cerevisiae UUG-firefly luciferase reporter, luminescence/redox ratio;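 active means replicate mean at a twofold rise or more, about +100% in these data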;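 further: firefly luciferase made from a UUG start codon reports start codon fidelity; reporter light over untreated wells divided by growth signal over untreated wells; some hits fall short of that in this replicate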
CASP6 VEID inh: blocks human caspase-6 cleavage activity; purified caspase-6, Z-VEID-R110 cleavage fluorescence; inhibition, % at 12.5 µM; P55212; hit rate 0.53% among 350,000;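 active means mean inhibition across replicates at least about 35%, with every replicate also reaching that limit, limit read from the data; inconclusive means only one of the two criteria met; inactive means neither criterion met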
INS-1E GSIS act: GLuc luminescence reporter in INS-1E cells, primary screen for activators of glucose-dependent secretion of insulin. hit rate 0.61% among 370,000. INS-1E GLuc reporter insulin secretion, 2-3 h. activation, % at 16.6 µM;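 active means lowest replicate activation of at least 40%, so every replicate reaches that level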
RAD52 anneal inh: blocks human RAD52 DNA annealing. recombinant RAD52 DNA annealing, FRET fluorescence. inhibition, % at 18.7 µM. hit rate 0.46% among 360,000. AID 651710;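 active means every replicate showing at least 50% inhibition; inconclusive means mean inhibition at least 50% but not in every replicate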
RAD52 DNA ctr: counter-screen for RAD52 inhibitors: DNA binding compounds. shares compounds with RAD52 anneal inh. Salmon sperm DNA/acridine orange FP displacement. AC50, µM. hit rate 8% among 1,000. AID 652128;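 active means fitted half-maximal concentration for signal loss at or below twice the highest dose tested, in every separate run, actives reach about 64 µM in these data; inconclusive means runs disagree, or flat partial signal loss, or poor fit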
Numbers stand for hits; n = inactive; u = inconclusive; x = no result given.

SMILES	RAD54 branch	PglD inh	Yeast UUG start	CASP6 VEID inh	INS-1E GSIS act	RAD52 anneal inh	RAD52 DNA ctr
CCn1c(SCC(N)=O)nc2sc3c(c2c1=O)CCN(C)C3	n	n	n	n	x	56	n
CN1CCN(C2CCN(c3ccc(Nc4nnc(Cl)c(Nc5ccccc5S(C)(=O)=O)n4)c(OC(CF)CF)c3)CC2)CC1	n	n	n	n	n	51	n
CN/C(=C\[N+](=O)[O-])NCCSCc1ccc(CN(C)C)o1	n	n	n	n	x	61	n
CCC(C)NC(=O)CCn1c(-c2ccc(F)cc2)cc(C(C)=O)c1C (configuration not stated)	x	x	x	n	n	n	x
O=C(C[n+]1ccccc1)N/N=C/c1ccco1	x	x	x	n	n	50	n
Cc1ccc(-c2nc(C(=O)NCCCN3CCOCC3)cc3c2[nH]c2ccccc23)cc1	n	n	n	n	x	94	n
CC(C)(C)Nc1nc(Cl)nc(NCc2ccccc2)n1	n	n	n	n	n	n	x
CCCNc1nc(Cl)nc(NCc2cccnc2)n1	x	x	x	n	n	85	n
CCOc1ccc(CCN2C(=S)N([C@@H](Cc3ccc(O)cc3)CN3CCC[C@@H]3CN3C(=S)NC[C@@H]3CC(C)C)C[C@@H]2Cc2ccc(O)cc2)cc1	n	n	n	n	n	67	n
CCOc1ccc(CCN2C(=S)N([C@@H](Cc3ccc(O)cc3)CN3CCCC3CN3C(=S)NC[C@@H]3Cc3ccc(O)cc3)C[C@@H]2CC(C)C)cc1 (some centres not stated)	n	n	n	n	x	n	x
CCc1ccc(NC(=O)C2=CC(c3cccs3)=NS(=O)(=O)N2C)cc1	n	n	n	n	x	n	x
CCN(Cc1ccncc1)Cc1ccc(OC)cc1OC	n	n	n	n	n	99	n
CCn1nnc(-c2ccccc2NS(=O)(=O)c2ccc(C(=O)OC)cc2)n1	n	n	n	x	n	x	x
O=C(CCn1nc(-c2ccc(Cl)cc2)ccc1=O)NCCCN1CCCCCC1	n	n	n	n	n	63	n
CCCCCCCC(=O)OCC(O)CO (configuration not stated)	n	n	n	n	n	n	x
CCCCCCCCCCCCCCC(O)C[N+](C)(CCO)CCO (configuration not stated)	x	x	x	n	295	85	u
O=C(CC(C(=O)O)c1cccc(Br)c1)c1ccc(Cl)cc1 (configuration not stated)	n	n	n	n	x	108	n
Cc1ccc(S(=O)(=O)N(C)C[C@H]2OCCCC[C@@H](C)Oc3ccc(NC(=O)Nc4ccc5c(c4)OCO5)cc3C(=O)N([C@@H](C)CO)C[C@@H]2C)cc1	n	n	n	n	n	n	x
O=c1c2c(-c3ccccc3)csc2nc2c3ccccc3c(NCCN3CCOCC3)nn12	x	x	x	n	n	87	n
Cc1cc(C(=O)OC(C)C(=O)NC2CCCCC2C)c2ccccc2n1 (configuration not stated)	n	n	n	n	n	51	n
C=CCN1CCc2nc(N)sc2CC1	n	n	n	x	x	66	n
CCN1CCc2nc(N)sc2C1	x	x	x	n	n	69	n
Nc1nc2c(s1)CCCCCCCCCC2	n	n	n	n	x	n	x
COc1ccc(C(O)c2nc(-c3cccc(C(=O)O)c3)cs2)cc1 (configuration not stated)	n	n	n	n	n	n	x
O=C(CCC(=O)N1CCOc2ccccc21)NCCCN1CCOCC1	n	n	n	n	n	n	x
SMILES	RAD54 branch	PglD inh	Yeast UUG start	CASP6 VEID inh	INS-1E GSIS act	RAD52 anneal inh	RAD52 DNA ctr
COc1cccc(C2=NCCc3cc4c(cc32)OCO4)c1OC	n	n	n	x	n	x	x
COc1ccc2cc3[n+](cc2c1OC)CCc1cc2c(cc1-3)OCO2	72	n	n	n	n	75	n
O=c1cc(CSc2ccc(Cl)cc2)[nH]c2[nH]n(-c3ccccc3)c(=O)c12	n	n	n	n	n	n	x
CN1CCN(c2nc(-c3ccccc3O)nc3ccccc23)CC1	x	x	x	n	n	53	n
COc1cccc(-c2nc(N3CCCCC3C)c3ccccc3n2)c1O (configuration not stated)	n	n	n	x	x	x	x
COc1cccc(-c2nc(N3CCN(C)CC3)c3ccccc3n2)c1O	x	x	x	n	n	87	u
Cc1cc(C)cc(N(CC(=O)N2CCN(Cc3ccccc3)CC2)S(=O)(=O)c2c(C)noc2C)c1	n	n	n	n	n	n	x
CCCCCCCC/C=C\CCCCCCCC(=O)NCCO	n	n	n	n	x	n	x
CCCCCCCCCCCCC/C=C/[C@@H](O)[C@@H](N)CO	n	n	n	n	x	55	n
CCN1/C(=C/c2sc(-c3ccccc3C)c[n+]2C)Sc2ccccc21	x	x	x	n	n	69	n
CCN1/C(=C/c2ccc3cc(C)ccc3[n+]2CC)Sc2ccccc21	x	x	x	n	n	n	x
CCN(CC)CCCN(C(=O)c1cccs1)c1nc(-c2ccc(OC)cc2)cs1	n	n	n	x	x	x	x
CCN(CC)CCCN(C(=O)c1cccc(C)c1)c1nc(-c2ccc(OC)cc2)cs1	n	n	n	n	x	58	n
CCN(CC)CCCN(C(=O)c1ccc(Br)cc1)c1nc(-c2ccc(OC)cc2)cs1	n	n	n	n	n	57	n
CCN(CC)CCCN(C(=O)c1ccco1)c1nc(-c2ccc(C)cc2)cs1	n	n	n	n	n	52	n
CCN(CC)C(=O)C1=C(C)NC(=S)NC1c1cn(-c2ccccc2)nc1-c1ccc(Cl)cc1 (configuration not stated)	x	x	x	x	n	x	x
C[C@H](CO)N1C[C@H](C)[C@H](CN(C)C)Oc2ncc(-c3cccc(C(=O)N(C)C)c3)cc2C1=O	n	n	n	n	n	n	x
CN1CCN(/N=C/c2ccc(-c3ccc([N+](=O)[O-])cc3Cl)o2)CC1	x	x	x	n	n	n	x
CCN1CCN(CCNC(=O)c2ccc3nc(-c4cccc(C)c4)c(-c4cccc(C)c4)nc3c2)CC1	n	n	n	n	n	68	n
CCCCCc1ccc(OCCCC[n+]2cccc(C)c2)c(CCCCC)c1	x	x	x	n	174	76	n
CCCCCc1ccc(OCCCC[n+]2ccc(C)cc2)c(CCCCC)c1	x	x	x	n	109	66	n
CCC(C)Sc1ccc([C@H]2N[C@@](Cc3ccccc3)(C(=O)OC)[C@H]3C(=O)N(C)C(=O)[C@@H]23)cc1 (some centres not stated)	n	n	n	n	n	98	n
S=c1[nH]cc(-c2ccccc2)[nH]1	x	x	x	n	n	n	x
CCOc1cc(CNCCO)cc(Br)c1OCc1ccccc1Cl	n	n	n	x	x	x	x
CCOc1cc(CNCCCN2CCOCC2)cc(Br)c1OCc1ccccc1Cl	n	n	n	n	n	50	n
CCN(CC)CCCN(Cc1cc2cc3c(cc2[nH]c1=O)OCO3)C(=S)NCCCN(C)C	n	n	n	n	x	90	n
COc1cc2cc(CN(CCc3cccc(C)c3)C(=S)NCCCN(C)C)c(=O)[nH]c2cc1OC	x	x	x	n	n	51	n
CNC(=S)N(CCc1cccc(C)c1)Cc1cc2cc(OC)c(OC)cc2[nH]c1=O	x	x	x	n	n	n	x

Screening data from PubChem BioAssay.
